Test results published in patent US20130251632A1, “APOPTOSIS PET IMAGING AGENTS” (GE HEALTHCARE LIMITED, priority 2010, published 2013).

Test: Affinity for phosphatidylethanolamine, Biacore 3000 with L1 chip and captured liposomes
Assay type: binding
Conditions: POPE/POPC liposomes (20% PE)
Excerpt: A Biacore 3000 (GE Healthcare, Uppsala) was equipped with an L1 chip. Liposomes made of POPE/POPC (20% PE) were applied for the affinity study using the capture technique recommended by the manufacturer. Each run consisted of activation of the chip surface, immobilization of liposomes, binding of peptide and wash off of both liposomes and peptide (regeneration). Similar applications can be found in Frostell-Karlsson et al [Pharm. Sciences, V.94 (1), (2005)]. Thorough washing of needle, tubing and liquid handling system with running buffer was performed after each cycle.
BIACORE software: The BIACORE control software including all method instructions was applied. A method with commands was also written in the BIACORE Method Definition Language (MDL) to have full control over pre-programmed instructions. BIACORE evaluation software was applied for analysing the sensorgrams.

duramycin
kd: ~8e-05 s⁻¹ | Kd (Table 2): ~5 nM
